The chains behind the UniProt entries cited, without tags or fusion partners.
UniProt Q92800, whole entry: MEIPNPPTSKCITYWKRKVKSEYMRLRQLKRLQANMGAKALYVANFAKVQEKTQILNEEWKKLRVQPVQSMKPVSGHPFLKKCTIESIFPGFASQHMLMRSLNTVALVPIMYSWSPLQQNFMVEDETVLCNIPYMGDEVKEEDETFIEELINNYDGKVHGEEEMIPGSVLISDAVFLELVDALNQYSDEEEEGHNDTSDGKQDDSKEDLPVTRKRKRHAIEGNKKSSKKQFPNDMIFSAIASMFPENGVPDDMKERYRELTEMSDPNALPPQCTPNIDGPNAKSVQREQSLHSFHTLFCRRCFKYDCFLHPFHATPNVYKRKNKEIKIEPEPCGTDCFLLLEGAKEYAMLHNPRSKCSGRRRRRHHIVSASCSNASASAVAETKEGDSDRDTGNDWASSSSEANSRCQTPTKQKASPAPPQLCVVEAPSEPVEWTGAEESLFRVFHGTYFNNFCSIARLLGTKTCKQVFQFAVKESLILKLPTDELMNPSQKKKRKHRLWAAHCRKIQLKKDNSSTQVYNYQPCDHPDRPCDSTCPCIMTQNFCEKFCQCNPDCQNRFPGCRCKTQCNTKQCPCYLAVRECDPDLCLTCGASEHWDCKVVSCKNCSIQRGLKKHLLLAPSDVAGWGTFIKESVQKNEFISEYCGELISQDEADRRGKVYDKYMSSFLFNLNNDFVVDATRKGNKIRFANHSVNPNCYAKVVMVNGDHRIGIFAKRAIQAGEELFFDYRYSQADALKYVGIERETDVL

In patent US10954219B2, “1,3-benzodioxole derivative” (DAIICHI SANKYO COMPANY, LIMITED, priority 2014, dated 2021):

Key:
[1] = molecular target: PRC2-EZH1 (WT EZH1) (Homo sapiens, UniProt Q92800); experiment: EZH1 methyltransferase inhibitory activity evaluation
[2] = system: Intracellular H3K27me3 in HCT116 cells; experiment: Intracellular H3K27me3 inhibitory activity evaluation; type: cell-based; details: Homo sapiens, HCT-116, 72 h, read-out: Test Example 3 H3K27me3 inhibition (HCT116) IC50 (μM)

pIC50 [1]	Structure (SMILES)	IC50 [2]
8.13	Cc1cc(C)c(CNC(=O)c2cc(Br)c3c(c2C)O[C@@](C)([C@H]2CC[C@H](N(C)C)CC2)O3)c(=O)[nH]1 (single isomer, unassigned) [Example 15]	–
7.23	Cc1cc(C)c(CNC(=O)c2cc(Br)c3c(c2C)OC(C)([C@H]2CC[C@@H](N(C)C)CC2)O3)c(=O)[nH]1 (relative stereo) [Example 41, 7-Bromo-2-[cis-4-(dimethylamino)cyclohexyl]-N-[(4,6-dimethyl-2-oxo-1,2-dihydropyridin-3-yl)methyl]-2,4-dimethyl-1,3-benzodioxole-5-carboxamide]	–
–	CCN1CCN(c2ccc(-c3cc(C(=O)NCc4c(C)cc(C)[nH]c4=O)c(C)c4c3O[C@](C)(CN3CCOCC3)O4)cn2)CC1 [Example 77, (2R)—N-[(4,6-Dimethyl-2-oxo-1,2-dihydropyridin-3-yl)methyl]-7-[6-(4-ethylpiperazin-1-yl)-3-pyridyl]-2,4-dimethyl-2-(morpholinomethyl)-1,3-benzodioxole-5-carboxamide]	0.024 µM

pIC50: −log10 of the molar value.
